Laboratory results as given in patent US8912180B2, “Heterocyclic compound” (Astellas Pharma Inc., priority 2010, dated 2014).

The chains behind the UniProt entries cited, without tags or fusion partners. Where a name states a change or a piece, a line headed by the entry shows the natural chain unless it says otherwise.
UniProt O00329, whole entry: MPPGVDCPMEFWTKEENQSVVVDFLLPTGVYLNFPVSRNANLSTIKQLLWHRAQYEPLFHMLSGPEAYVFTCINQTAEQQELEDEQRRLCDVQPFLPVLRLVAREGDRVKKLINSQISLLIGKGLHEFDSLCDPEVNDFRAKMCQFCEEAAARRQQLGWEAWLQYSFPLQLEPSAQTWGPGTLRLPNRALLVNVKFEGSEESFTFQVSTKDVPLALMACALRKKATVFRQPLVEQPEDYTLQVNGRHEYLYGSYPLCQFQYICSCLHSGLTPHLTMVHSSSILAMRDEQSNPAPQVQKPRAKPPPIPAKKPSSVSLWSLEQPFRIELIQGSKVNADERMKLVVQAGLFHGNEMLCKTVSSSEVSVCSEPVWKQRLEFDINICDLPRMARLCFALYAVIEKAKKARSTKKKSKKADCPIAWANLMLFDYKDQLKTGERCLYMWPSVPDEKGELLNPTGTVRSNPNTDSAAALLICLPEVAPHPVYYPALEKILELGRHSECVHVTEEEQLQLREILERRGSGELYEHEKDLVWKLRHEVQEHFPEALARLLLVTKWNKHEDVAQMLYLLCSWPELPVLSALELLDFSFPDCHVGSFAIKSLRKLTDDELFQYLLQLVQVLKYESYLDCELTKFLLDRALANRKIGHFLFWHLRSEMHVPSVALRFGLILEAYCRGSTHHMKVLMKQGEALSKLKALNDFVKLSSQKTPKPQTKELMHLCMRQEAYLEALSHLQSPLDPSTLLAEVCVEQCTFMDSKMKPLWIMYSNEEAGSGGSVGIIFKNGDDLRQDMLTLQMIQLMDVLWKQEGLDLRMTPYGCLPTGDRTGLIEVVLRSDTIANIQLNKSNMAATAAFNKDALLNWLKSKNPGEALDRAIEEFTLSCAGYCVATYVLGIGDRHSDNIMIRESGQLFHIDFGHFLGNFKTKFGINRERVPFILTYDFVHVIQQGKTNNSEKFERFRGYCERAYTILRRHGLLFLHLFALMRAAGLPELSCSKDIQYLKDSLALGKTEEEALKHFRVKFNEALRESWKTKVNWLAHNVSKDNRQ
UniProt P42336, whole entry: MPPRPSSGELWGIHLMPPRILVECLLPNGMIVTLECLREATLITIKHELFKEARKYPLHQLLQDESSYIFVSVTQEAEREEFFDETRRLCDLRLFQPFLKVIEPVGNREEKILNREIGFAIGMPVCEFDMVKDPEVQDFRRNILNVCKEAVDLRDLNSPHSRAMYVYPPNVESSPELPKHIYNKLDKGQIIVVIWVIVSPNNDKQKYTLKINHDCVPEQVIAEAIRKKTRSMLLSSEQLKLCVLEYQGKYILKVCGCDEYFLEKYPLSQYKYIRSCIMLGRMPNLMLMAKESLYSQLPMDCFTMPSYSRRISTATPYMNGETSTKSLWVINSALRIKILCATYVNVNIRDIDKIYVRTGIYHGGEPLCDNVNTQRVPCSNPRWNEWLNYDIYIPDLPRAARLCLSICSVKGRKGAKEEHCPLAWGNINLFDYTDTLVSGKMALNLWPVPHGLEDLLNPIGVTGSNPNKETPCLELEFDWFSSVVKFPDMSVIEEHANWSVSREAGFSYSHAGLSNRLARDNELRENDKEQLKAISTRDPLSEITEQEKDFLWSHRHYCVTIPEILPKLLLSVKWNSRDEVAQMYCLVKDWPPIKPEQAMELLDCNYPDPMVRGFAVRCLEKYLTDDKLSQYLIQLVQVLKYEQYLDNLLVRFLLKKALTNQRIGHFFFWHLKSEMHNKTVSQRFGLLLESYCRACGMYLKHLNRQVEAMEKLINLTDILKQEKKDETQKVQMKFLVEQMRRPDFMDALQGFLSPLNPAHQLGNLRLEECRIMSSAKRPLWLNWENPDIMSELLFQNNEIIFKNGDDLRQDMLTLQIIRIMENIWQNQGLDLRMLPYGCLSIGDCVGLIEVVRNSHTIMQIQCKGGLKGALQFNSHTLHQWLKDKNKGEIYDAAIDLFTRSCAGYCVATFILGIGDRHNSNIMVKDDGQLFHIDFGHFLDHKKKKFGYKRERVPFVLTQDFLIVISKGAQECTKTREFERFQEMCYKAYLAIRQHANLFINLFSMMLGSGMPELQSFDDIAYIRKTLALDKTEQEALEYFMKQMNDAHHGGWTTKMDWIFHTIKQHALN
UniProt P27986, whole entry partner: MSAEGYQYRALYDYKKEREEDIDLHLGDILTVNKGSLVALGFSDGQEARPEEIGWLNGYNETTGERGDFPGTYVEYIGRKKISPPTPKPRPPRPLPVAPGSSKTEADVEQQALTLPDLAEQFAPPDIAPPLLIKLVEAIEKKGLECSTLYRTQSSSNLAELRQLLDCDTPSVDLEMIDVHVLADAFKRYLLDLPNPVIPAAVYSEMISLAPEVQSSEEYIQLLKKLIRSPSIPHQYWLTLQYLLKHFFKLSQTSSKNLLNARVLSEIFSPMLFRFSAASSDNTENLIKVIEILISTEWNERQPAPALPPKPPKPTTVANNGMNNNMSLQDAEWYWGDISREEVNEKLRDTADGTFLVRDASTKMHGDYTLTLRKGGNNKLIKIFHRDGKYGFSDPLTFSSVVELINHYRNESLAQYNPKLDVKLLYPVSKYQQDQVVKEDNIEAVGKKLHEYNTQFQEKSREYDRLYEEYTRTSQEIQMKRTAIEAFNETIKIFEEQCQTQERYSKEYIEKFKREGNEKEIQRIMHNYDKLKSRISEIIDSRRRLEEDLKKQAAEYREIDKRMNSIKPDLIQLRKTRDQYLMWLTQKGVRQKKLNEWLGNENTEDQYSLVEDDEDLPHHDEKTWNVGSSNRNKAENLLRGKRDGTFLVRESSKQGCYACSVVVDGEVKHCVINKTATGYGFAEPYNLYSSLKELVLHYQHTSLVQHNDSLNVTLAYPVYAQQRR

How the values were obtained:
[1] = molecular target: human PI3Kδ enzyme (Homo sapiens, UniProt O00329); assay: PI3Kδ enzyme inhibitory activity (PI3-Kinase HTRF Assay kit); conditions: read-out: PI3Kδ IC50; human PI3Kδ 10 ng/well, ATP 30 μM, PIP2 10 μM, room temperature 30 minutes
[2] = molecular target: Human PI3Kα (Homo sapiens, UniProt P42336); assay: PI3Kα enzyme inhibitory activity (Kinase-Glo Plus luminescence); conditions: read-out: PI3Kα IC50; human PI3Kα 12 ng/well, phosphatidylinositol 0.2 μg/well, 37° C. 3 hours
[3] = test system: Spleen cells prepared from male LEW/CrlCrlj rats (B cell proliferation); assay: Rat B cell proliferation inhibition test (anti-rat IgM, [3H]thymidine); conditions: read-out: IC50(nM) B cell proliferation, anti-rat IgM 3 μg/well, 48 hours culture
Experimental: 4. Rat B Cell Proliferation Inhibition Test
Spleen cells (1.0×10^5 cells/well) prepared from male LEW/CrlCrlj rats (Charles River Laboratories, Japan, Inc.), mouse F(ab′)2 fragment anti-rat IgM (3 μg/well, SouthernBiotech Associates, Inc., Catalogue No. 3082-14) and the test compound dissolved in DMSO (final DMSO concentration 0.1%) were mixed in a 96-well plate using a 10% FCS-containing RPMI-1640 culture medium (total 200 μL). They were cultured in a CO2 incubator for 48 hours and [^3H]thymidine (925 GBq/mmol, Moravek Biochemicals, Inc., Catalogue No. MT6038) was added thereto at 0.037 MBq/well at 4 hours before completion of culture. Cells were harvested in a GF/C glass filter using a cell harvester, and a radioactivity on the filter was measured using a liquid scintillation counter. The IC50 value of the compound was calculated, taking the dpm (disintegration per minute) without addition of IgM as an inhibition rate of 100% and the dpm without addition of the test compound as an inhibition rate of 0%, by a logistic method.

IC50 [1]: 11 nM
IC50 [2]: 1600 nM
Structure (SMILES): CN1CC(C(=O)N2CC(Nc3nc(N4CCOCC4)nc(-n4c(C(F)F)nc5ccccc54)n3)C2)CC1=O (stereo not drawn)
IC50 [3]: 1.8 nM
